Test results: patent US9023789B2, “Amylin analogs and pharmaceutical compositions thereof” (Novo Nordisk A/S, priority 2012, dated 2015)

Test system: amylin receptor / calcitonin receptor

## CC(C)C[C@H](NC(=O)[C@H](CCCCN)NC(=O)CNC(=O)[C@H](CC(C)C)NC(=O)[C@@H](NC(=O)[C@@H]1CSSC[C@H](N)C(=O)N[C@@H](CO)C(=O)N[C@@H](CC(N)=O)C(=O)N[C@@H](CC(C)C)C(=O)N[C@@H](CO)C(=O)N[C@@H]([C@@H](C)O)C(=O)N1)C(C)C)C(=O)N[C@@H](CO)C(=O)N[C@@H](CCC(N)=O)C(=O)N[C@@H](CCC(=O)O)C(=O)N[C@@H](CC(C)C)C(=O)N[C@@H](Cc1c[nH]cn1)C(=O)N[C@@H](CCCCN)C(=O)N[C@@H](CC(C)C)C(=O)N[C@@H](CCC(N)=O)C(=O)N[C@H](C(=O)N[C@@H](Cc1ccc(O)cc1)C(=O)N1CCC[C@H]1C(=O)N[C@@H](CCCNC(=N)N)C(=O)N[C@H](C(=O)N[C@@H](CC(N)=O)C(=O)N[C@H](C(=O)NCC(=O)N[C@@H](CO)C(=O)NCC(=O)N[C@H](C(=O)N1CCC[C@H]1C(N)=O)[C@@H](C)O)[C@@H](C)O)[C@@H](C)O)[C@@H](C)O [salmon calcitonin]
  binding affinities to amylin receptors and calcitonin receptors: comparable binding affinities to amylin receptors and calcitonin receptors
